Test results: PMC9814792, “A platinum(IV) prodrug strategy to overcome glutathione-based oxaliplatin resistance” (Communications Chemistry, 2022)

Tested on: HCT116/OxR cells
Assay: 72 h cell viability (MTT) assay
Format: cell-based, human
Conditions: IC50 HCT116/OxR divided by IC50 HCT116
Procedure: Absorbance was measured at 450 nm (at 620 nm as reference) using the multimode plate reader Tecan Infinite 200 Pro (Zurich, Switzerland). Cytotoxicity was expressed as IC50 values calculated from full dose-response curves using the 4 parameter nonlinear regression model of GraphPad Prism 8 software (La Jolla, CA, USA).

Compound: O=C1[O][Pt]2([NH][C@@H]3CCCC[C@H]3[NH]2)[O]C1=O [oxaliplatin]
- resistance factor: > 17.2
